{"source": "patent US6872541B2", "about": "“Method and compositions for analysis of pentraxin receptors as indicators of disease” (Coulter International Corp., priority 2001, dated 2005)", "system": "THP-1 cells", "assay": "inhibition of the binding of bCRP to THP-1 cells", "set-up": "species or system human", "conditions": "non-washed assay; fragment 174-185 at 100 μgs (˜128 M solution), not repeated; other fragments up to 200 μgs", "text": "Staining proceeded using the previously determined optimal non-washed conditions. […] All other staining conditions were as previously described using bHSA as the control.", "data": [{"substance": "HSA: Human Serum Albumin >99% purity, control inhibitor", "values": [{"measurement": "inhibition of bCRP binding to THP-1 cells (in words)", "result": "no inhibition"}]}]}
